Earlier results on one compound are cited in publication PMC6719874 (PLoS ONE, 2019).

In data set [1] the test system is lung cancer, neuroblastoma cell lines, and two colon cancer cell lines.
The conditions of data set [2]: cancer / malignant solid tumors and Cushing's disease ref 18, 19.

For `CCC(CO)Nc1nc(NCc2ccccc2)c2ncn(C(C)C)c2n1` (centres unmarked) [R-roscovitine, 2-(1-ethyl-2-hydroxyethylamino)-6-benzylamino-9-isopropylpurine], the “concentration range reducing growth” value in data set [1] was 20 to 100 µM. Further, the “effective concentration in clinical trials” value in data set [2] is given as ~ 10 μM.
